## Apparent affinities of Ab-14 variants for a coronavirus HR2 peptide

All variants were tested on one target, the spike HR2 peptide PDVDLGDISGINAS (SARS-CoV-2).

Parent scFv Ab-14: VH joined to VL by three GGGGS repeats. Changes lie in the light chain CDRs alone.
VH: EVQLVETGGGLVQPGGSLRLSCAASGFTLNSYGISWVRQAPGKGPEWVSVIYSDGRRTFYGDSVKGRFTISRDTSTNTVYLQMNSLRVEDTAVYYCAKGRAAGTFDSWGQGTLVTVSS
VL: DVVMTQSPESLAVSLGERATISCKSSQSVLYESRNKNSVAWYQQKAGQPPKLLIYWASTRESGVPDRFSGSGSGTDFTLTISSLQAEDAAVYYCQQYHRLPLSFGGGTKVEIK

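Designed CDR sequences, proposed from the first random library and measured here. Group labels follow the data file (Ctrl: baseline library sampled from a position-specific scoring matrix, with some repeated check sequences; En: ensemble of fine-tuned language models; GP: Gaussian process model; HC: hill climbing; Gen: genetic algorithm; Gibbs: Gibbs sampling; a sequence that several methods proposed may carry one label only). The scFvs were displayed on barcoded MATa yeast, the peptide on MATalpha yeast. Mating (16 h, 30 °C) was followed by selection of diploids and sequencing of their barcodes. Read counts were normalised to the haploid input and turned into Kd by a linear fit to BCL2-family pairs of known affinity, for each replicate. There are six technical replicates.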

Variants are written as CDR1, CDR2 and CDR3 of the light chain (limits as in the source). Parent: KSSQSVLYESRNKNSVA, WASTRES, QQYHRLPLS.
The Kd shown is the geometric mean over detected replicates; a lower Kd is a better binder.
"nd" means that the variant was in the library but no mating with the target was seen in any replicate; the authors take this as a sign of poor binding, and no number exists.
The authors averaged sequences with at least three values out of six and counted those with two or fewer as poor binders.
Nonspecific signal, from three strains lacking the peptide, appeared in 4% of pairings of all light chain designs, centred on 430 nM (5% of these signals below 38 nM); values are not corrected for it. The control count says in how many pairings with the empty strains this scFv gave a signal.
The range of this assay differs from that of the first round, and the authors advise against merging the two.

{"CDR-L1": "KSSQSVLYESNNKNSVA", "CDR-L2": "NASTRES", "CDR-L3": "QQYHRLPLS", "group": "Ctrl", "Kd (apparent)": "1.3 nM", "seen in": "6/6", "control signals": "1/18"}
{"CDR-L1": "HITMGMYVSGRYKSNIA", "CDR-L2": "QAETREK", "CDR-L3": "QQYDRLPLT", "group": "En_Gen", "Kd (apparent)": "2.4 nM", "seen in": "6/6", "control signals": "0/18"}
{"CDR-L1": "MVGQGLMGESRAKNSIA", "CDR-L2": "HASIRFD", "CDR-L3": "QHYHRLPLI", "group": "En_HC", "Kd (apparent)": "nd", "seen in": "0/6", "control signals": "0/18"}
{"CDR-L1": "KSSESFLYESRNKNSVA", "CDR-L2": "AASTREW", "CDR-L3": "QQVHRLPLS", "group": "Ctrl", "Kd (apparent)": "150 nM", "seen in": "1/6", "control signals": "1/18"}
{"CDR-L1": "MISQLMNMGQFAINSVA", "CDR-L2": "QASIRNE", "CDR-L3": "QQYDRLPLI", "group": "En_Gen", "Kd (apparent)": "1.2 nM", "seen in": "6/6", "control signals": "2/18"}
{"CDR-L1": "KSSPSYLYEDRAFNSVA", "CDR-L2": "NASTRES", "CDR-L3": "QQYHRLPLS", "group": "GP_Gibbs", "Kd (apparent)": "2.3 nM", "seen in": "6/6", "control signals": "1/18"}
{"CDR-L1": "KSSQSVLLETRNKNSVA", "CDR-L2": "WASTRES", "CDR-L3": "QQYHRLPLS", "group": "Ctrl", "Kd (apparent)": "430 nM", "seen in": "4/6", "control signals": "2/18"}
{"CDR-L1": "KLSQSFLYESQNWNSVA", "CDR-L2": "NASKRES", "CDR-L3": "QQYHRLPLS", "group": "GP_Gibbs", "Kd (apparent)": "920 pM", "seen in": "6/6", "control signals": "0/18"}
{"CDR-L1": "KLEQSVLYESRNKNSVA", "CDR-L2": "NASTRYS", "CDR-L3": "QQYHRLPLS", "group": "GP_Gen", "Kd (apparent)": "1.1 nM", "seen in": "6/6", "control signals": "2/18"}
{"CDR-L1": "KLSQSVEYESRNKNSVA", "CDR-L2": "NASTREV", "CDR-L3": "QQYHRLPLS", "group": "GP_Gen", "Kd (apparent)": "1.6 nM", "seen in": "6/6", "control signals": "3/18"}
{"CDR-L1": "KSSQSVLIEIRNKNSVA", "CDR-L2": "NASKRES", "CDR-L3": "QQYHRLPLS", "group": "Ctrl", "Kd (apparent)": "6.9 µM", "seen in": "1/6", "control signals": "0/18"}
{"CDR-L1": "IISQMMLIESATHNSIA", "CDR-L2": "QTETREE", "CDR-L3": "QQYHHLPLI", "group": "En_HC", "Kd (apparent)": "nd", "seen in": "0/6", "control signals": "0/18"}
{"CDR-L1": "KLSMVTGHQLMSKDNVA", "CDR-L2": "EMETREN", "CDR-L3": "QQYDRLPLS", "group": "En_Gen", "Kd (apparent)": "2.9 nM", "seen in": "3/6", "control signals": "0/18"}
{"CDR-L1": "KLSQSMDYESRNKNSVA", "CDR-L2": "NASTRES", "CDR-L3": "QQYHRLPLS", "group": "GP_Gen", "Kd (apparent)": "880 pM", "seen in": "6/6", "control signals": "0/18"}
{"CDR-L1": "KLSGSVLYESRNKNAVA", "CDR-L2": "EASTRES", "CDR-L3": "QQYHRLPLS", "group": "GP_Gen", "Kd (apparent)": "600 pM", "seen in": "6/6", "control signals": "0/18"}
{"CDR-L1": "KYYPSYLYESRNKNSVA", "CDR-L2": "QASQRES", "CDR-L3": "QQYHLLPLS", "group": "GP_HC", "Kd (apparent)": "20 nM", "seen in": "6/6", "control signals": "0/18"}
{"CDR-L1": "KVSFSVMLESRNKNAVA", "CDR-L2": "SASTRES", "CDR-L3": "QDYHRLPLS", "group": "GP_Gibbs", "Kd (apparent)": "1.7 nM", "seen in": "6/6", "control signals": "0/18"}
{"CDR-L1": "MISDMGLHDSRMQNSVA", "CDR-L2": "NNSTREA", "CDR-L3": "QQYDRLPLS", "group": "En_HC", "Kd (apparent)": "120 nM", "seen in": "2/6", "control signals": "2/18"}
{"CDR-L1": "KIGGVTNGISFSKNSVA", "CDR-L2": "EQSTRED", "CDR-L3": "QQYDRLPLS", "group": "En_HC", "Kd (apparent)": "3.8 nM", "seen in": "6/6", "control signals": "2/18"}
{"CDR-L1": "KISQMVNYESTHVNAVA", "CDR-L2": "QMSTREE", "CDR-L3": "QQYNRLPLS", "group": "En_HC", "Kd (apparent)": "1.9 nM", "seen in": "6/6", "control signals": "2/18"}
{"CDR-L1": "MLALPQKELGYAKKAIA", "CDR-L2": "DGSIRAG", "CDR-L3": "QQYHLLPLS", "group": "En_Gibbs", "Kd (apparent)": "1.3 nM", "seen in": "6/6", "control signals": "0/18"}
{"CDR-L1": "HVAQTRQEDISNKNNVA", "CDR-L2": "EGSVVIS", "CDR-L3": "QQYSKLPFS", "group": "En_Gibbs", "Kd (apparent)": "7.3 nM", "seen in": "6/6", "control signals": "1/18"}
{"CDR-L1": "KMQQSVWYEQRNFNSVA", "CDR-L2": "DGSTREQ", "CDR-L3": "QQYHRLPLS", "group": "GP_Gibbs", "Kd (apparent)": "1.2 nM", "seen in": "6/6", "control signals": "0/18"}
{"CDR-L1": "KISQSVLYESRNQNSVA", "CDR-L2": "WASTRIS", "CDR-L3": "QQYHMLPLS", "group": "Ctrl", "Kd (apparent)": "13 nM", "seen in": "6/6", "control signals": "0/18"}

For reference, 3 entries of the list once more:

{"CDR-L1": "KVSFSVMLESRNKNAVA", "CDR-L2": "SASTRES", "CDR-L3": "QDYHRLPLS", "group": "GP_Gibbs", "Kd (apparent)": "1.7 nM", "seen in": "6/6", "control signals": "0/18"}
{"CDR-L1": "KLSQSVEYESRNKNSVA", "CDR-L2": "NASTREV", "CDR-L3": "QQYHRLPLS", "group": "GP_Gen", "Kd (apparent)": "1.6 nM", "seen in": "6/6", "control signals": "3/18"}
{"CDR-L1": "KSSQSVLYESNNKNSVA", "CDR-L2": "NASTRES", "CDR-L3": "QQYHRLPLS", "group": "Ctrl", "Kd (apparent)": "1.3 nM", "seen in": "6/6", "control signals": "1/18"}

Reference: Li et al. 2023, doi:10.1038/s41467-023-39022-2. File: FLAb, binding data.